# Laboratory results from PMC5748751, “Study of Structure and Permeability Relationship of Flavonoids in Caco-2 Cells” (Nutrients, 2017).
# Tested on: Caco-2 cell monolayer
# Assay: Cellular accumulation (CA) of flavonoids in Caco-2 cell monolayer
# Conditions: both sides (CA A to B and CA B to A)
structure (smiles),measurement,value
"COc1ccc(CCC(=O)c2c(O)cc(O[C@@H]3O[C@H](CO)[C@@H](O)[C@H](O)[C@H]3O[C@@H]3O[C@@H](C)[C@H](O)[C@@H](O)[C@H]3O)cc2O)cc1O [Compound 30, Neohesperidin dihydrochalcone]",CA,< 0.26 µmol/g
